Reference: patent publication US5045530A, “Pharmaceutical preparations” (priority 1986, dated 1991)

Test: hydrodynamic (Stokes) radius / size of micelles and vesicles, inelastic light scattering
Type: physicochemical

## Benzyldimethyl[2-[2-(p-1,1,3,3,tetramethylbutyl-p,p'-dimethyl-phenoxy)ethoxy]ethyl]ammonium
Table 3, counter ion Y- = NO3-
  <RH> hydrodynamic radius: 150 Å
Table 3, counter ion Y- = Salicylate
  <RH> hydrodynamic radius: 3000 Å
